In patent US20040043043A1, “Preparation of emulsions and concentrates thereof” (priority 2000, published 2004):

How the values were obtained:
[1] = Chemical stability study: vitamin contents on storage at 20 °C/ambient RH; conditions: Example 4 syrup, two batches
[2] = as above; conditions: for Content after 18 months: Example 4 syrup; for Initial content: Example 4 vitamin and mineral syrup

- Recovery (initial versus nominal) [1]: 106.5%
- Content after 18 months ([2]; batch 1, 20 °C/ambient RH): 10.6, 10.6 mg/5 ml
- Content after 18 months ([2]; batch 2, 20 °C/ambient RH): 10.6, 10.6 mg/5 ml
- Initial content ([2]; batch 1, time 0): 10.9 mg/5 ml
- Initial content ([2]; batch 2, time 0): 10.4 mg/5 ml
Substance: Iron
